# Binding of CDR-mutated scFvs to a peptide of the spike HR2 region

Binding partner: SARS-CoV-2 spike HR2 peptide, sequence PDVDLGDISGINAS.

Ab-14 is the parent antibody, in scFv form: VH, then three GGGGS repeats, then VL. The light chain is unchanged in all variants.
VH: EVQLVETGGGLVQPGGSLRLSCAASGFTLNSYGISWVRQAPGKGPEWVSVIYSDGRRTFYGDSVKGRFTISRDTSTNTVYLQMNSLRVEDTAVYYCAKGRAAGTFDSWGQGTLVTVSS
VL: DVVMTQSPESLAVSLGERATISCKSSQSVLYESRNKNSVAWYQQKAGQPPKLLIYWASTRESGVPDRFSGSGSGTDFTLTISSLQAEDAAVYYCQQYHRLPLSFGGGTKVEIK

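The parent was found by panning a naive human phage display library on the peptide. The variants were designed computationally from a first round of random CDR variants and then made and measured. Group labels follow the data file (Ctrl: baseline library sampled from a position-specific scoring matrix, with some repeated check sequences; Rand: our label for a block that the file lists under HC and that is probably the random mutants of the ten best first-round binders; GP: Gaussian process model; GPLM: also part of the Gaussian process libraries; HC: hill climbing; Gen: genetic algorithm; Gibbs: Gibbs sampling; a sequence that several methods proposed may carry one label only). In AlphaSeq, yeast of one mating type display the scFv and yeast of the other type display the target. The frequency of each diploid, read from paired DNA barcodes, reflects how well the two displayed proteins bind. The ratio of observed to expected reads was calibrated, replicate by replicate, on BCL2-family standards whose Kd was known from biolayer interferometry. The assay was run in six technical replicates.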

The parent's heavy chain CDRs are GFTLNSYGIS, VIYSDGRRTFYGDSVK, GRAAGTFDS; each variant's own CDRs replace them letter for letter. Variants here have at most six changes. Values are apparent Kd, the geometric mean of the replicates that gave a signal; lower means stronger binding. Where no diploid with the target was found in any replicate, the entry reads "nd": below detection, most likely a poor binder, though not proof of it. Of ten entries with the parent sequence, four were seen in most replicates (averages 2.2 nM to 240 nM), three in one and three in none, so single entries are noisy.

CDR-H1,CDR-H2,CDR-H3,group,apparent Kd,detected,empty controls
GFNLNSYGIS,VIYSDGRRTFYTDSVK,GMFAGTFDS,GP_HC,100 nM,6 of 6,0 of 18
FFTLNEYGIS,VIYADGRRTFYGDSVK,GRAAGTNKS,Rand,nd,0 of 6,0 of 18
GFTLAQYGIS,VIYSDGRRTFYSDSVK,GRAAGFFDS,Rand,nd,0 of 6,0 of 18
TFTLNNYGIS,VIYSDGRRTFYGDSVK,GSAKGTFDS,Ctrl,7.0 nM,2 of 6,0 of 18
KFDLNSYGIS,VIYSDGRRTFYGDSVK,GKIAGTFDS,GP_Gen,10 nM,6 of 6,0 of 18
GFTLNSYGIS,VIYSDGRRTFYGDSVK,GRAAGTFDY,Ctrl,110 nM,3 of 6,1 of 18
GFTLNSYGIS,VIYSDGRRTFYGDNVK,GRAAGTFDL,Ctrl,19 nM,1 of 6,0 of 18
GFHLNSYGIS,VIYSDGRRTFYIDSVK,GQEAGTFDS,GP_Gen,27 nM,3 of 6,0 of 18
GFELNMYGIS,VIYSDGRRTFYADSVK,GKTAGTFDS,GP_Gibbs,1.2 nM,6 of 6,0 of 18
GYSLNEYGIS,VIYSDGRRTFYGDSVK,GRNAGTFDS,GP_Gibbs,71 nM,1 of 6,2 of 18
GFQLNEYGIS,VIYSDGRRTFYGDSVK,GRTAGTFCS,GP_Gen,38 nM,1 of 6,0 of 18
GFWLNSYGIS,VIYSDGRRTFYGDSVK,GREAGTFDS,Ctrl,130 nM,2 of 6,0 of 18
GFELNEYGIS,VIYSDGRRTFYGDSVK,GQAAGTFDS,GPLM_Gibbs,1.7 nM,6 of 6,0 of 18
GFTLNSYGIH,VIYSDGRRTAYGDSVK,GRNVGTFDL,Ctrl,nd,0 of 6,0 of 18
GFTLNSYGIS,VIYADGRRTFYGDSVK,GRAAGTFHS,GP_HC,nd,0 of 6,0 of 18
GFTLNDYGIS,VIYSDGKRTFYSDSVK,GRAAGTFDS,GPLM_HC,1.7 nM,6 of 6,0 of 18
GFTLNEYGIS,VIYSDGRRTFYIDSVK,GRIAGTFDS,GP_HC,7.8 nM,6 of 6,0 of 18
GFTLNMYGIS,VIYSDGRRTFYGDSVK,GRAAGWFDS,Ctrl,4.1 nM,6 of 6,0 of 18
GFTLDSYGIS,VIYSDGRRTFYGDSVK,GRTAGTFDA,GPLM_Gibbs,2.4 nM,6 of 6,0 of 18
GFTLNDYGIS,VIYSDGRRTFYGDVVK,ARAALTFIS,Rand,nd,0 of 6,0 of 18
GFDLNSYGIS,VIYSDGRRTFYVDSVK,GKTAGTFDS,GP_Gen,3.0 nM,6 of 6,0 of 18
GFTLNSYGVS,VIYSDGRRTFYADSVK,GRAAGTFRS,Ctrl,nd,0 of 6,0 of 18
GFTLNDYGIS,VIYSDGRRTFYADSVK,GKAAGTFDS,GP_HC,1.2 nM,6 of 6,1 of 18
GFTLNSYGIS,VIYADGRRTFYGDSVK,GREQGTFDS,Ctrl,53 nM,1 of 6,0 of 18
GFTLNSYGIS,VIYADGRRTAYGDSVK,GRAAGTFDL,Ctrl,630 pM,6 of 6,0 of 18
GFSLNSYGIS,VIYSDGRRTFYADEVK,GRQAGTFDS,GP_Gen,1.4 nM,6 of 6,2 of 18
GFKLNSYGIS,VIYSDGRRTFYGDSVK,GKEAGTFDS,GP_Gen,nd,0 of 6,0 of 18
GFTLNEYGIS,VIYSDGRRTFYGDSVK,GRFAGTFDL,GPLM_HC,13 nM,6 of 6,0 of 18
GFTLNDYGIS,VIYSDGRRTFYIDSVK,GRAVGTFDS,GP_HC,nd,0 of 6,1 of 18
GFDLNSYGIS,VIYSDGRRTFYGDSVK,GRRAGTFES,GP_HC,nd,0 of 6,0 of 18
GFSLNSYGIS,VIYSDGRRTFYSDSVK,GRLAGTFDS,GPLM_Gen,2.3 nM,6 of 6,0 of 18
GFDLNSYGIS,VIYSDGRRTFYRDSVK,GRAAVTFDS,GP_HC,9.6 nM,6 of 6,0 of 18
GFDLNSYGIS,VIYSDGRRTAYGDSVK,GNAAGTFDS,GPLM_HC,4.0 nM,6 of 6,0 of 18
GFDLNSYGIS,VIYSDGRRTFYGDSVK,GRVAGTFDM,GP_Gen,3.4 nM,6 of 6,0 of 18
GFTLNSYGIS,VIYSDGRRTFYGDSVK,GKAAGAFDS,Ctrl,nd,0 of 6,0 of 18
GFWLNDYGIS,VIYSDGRRTFYIDSVK,GRTAGTFDS,GPLM_Gibbs,3.5 nM,1 of 6,0 of 18
GFTLMSYGIS,VIYSDGRRTFYGDSVR,GRAAGTFDP,Ctrl,nd,0 of 6,0 of 18
GFTLNDYGIS,VIYSDGRRTYYGDSVK,GRTAGTFIS,GP_HC,44 nM,1 of 6,0 of 18
GFTLNSYGIS,VIYSDGRRTFYKDSVK,GRDAGTFDS,Ctrl,34 nM,3 of 6,0 of 18
GFSLNEYGIS,VIYSDGRRTFYGDSVK,GRAALTFDE,GP_HC,7.0 µM,2 of 6,2 of 18
GFTLNQYGIS,VIYSDGRRTFYSNSVK,GRAAGFFDS,Rand,10 nM,6 of 6,0 of 18
GFVLNSYGIS,VIYSDGRRTFYADSVK,GTAAGTFDS,GPLM_Gen,8.1 nM,6 of 6,0 of 18
GFNLDSYGIS,VIYSDGRRTFYGDSVK,LREAGTFDS,Ctrl,240 nM,1 of 6,0 of 18
GFNLNSYGIS,VIYSDGRRTFYADSVK,GREAGTFDT,GPLM_Gen,960 pM,6 of 6,0 of 18
GFEINSYGIS,VIYADGRRTFYGDSVK,GEAAGTFDM,Ctrl,2.5 nM,6 of 6,0 of 18
GFDLNEYGIS,VIYSDGRRTFYGDSVK,GRAAGTFDE,GP_HC,nd,0 of 6,0 of 18

Excerpt, the final 8 entries:

CDR-H1,CDR-H2,CDR-H3,group,apparent Kd,detected,empty controls
GFTLNSYGIS,VIYSDGRRTFYKDSVK,GRDAGTFDS,Ctrl,34 nM,3 of 6,0 of 18
GFSLNEYGIS,VIYSDGRRTFYGDSVK,GRAALTFDE,GP_HC,7.0 µM,2 of 6,2 of 18
GFTLNQYGIS,VIYSDGRRTFYSNSVK,GRAAGFFDS,Rand,10 nM,6 of 6,0 of 18
GFVLNSYGIS,VIYSDGRRTFYADSVK,GTAAGTFDS,GPLM_Gen,8.1 nM,6 of 6,0 of 18
GFNLDSYGIS,VIYSDGRRTFYGDSVK,LREAGTFDS,Ctrl,240 nM,1 of 6,0 of 18
GFNLNSYGIS,VIYSDGRRTFYADSVK,GREAGTFDT,GPLM_Gen,960 pM,6 of 6,0 of 18
GFEINSYGIS,VIYADGRRTFYGDSVK,GEAAGTFDM,Ctrl,2.5 nM,6 of 6,0 of 18
GFDLNEYGIS,VIYSDGRRTFYGDSVK,GRAAGTFDE,GP_HC,nd,0 of 6,0 of 18

The authors averaged sequences with at least three values out of six and counted those with two or fewer as poor binders. Nonspecific signal, from three strains lacking the peptide, appeared in 1% of pairings of all heavy chain designs, centred on 120 nM (5% of these signals below 7.0 nM); values are not corrected for it. The control count says in how many pairings with the empty strains this scFv gave a signal. A sequence measured in both rounds can read differently, since the two assays cover different ranges.

From the AlphaSeq antibody data of Li et al. 2023 (doi:10.1038/s41467-023-39022-2), copy in the FLAb collection.